IC50 data for one compound are collected here from patent US20240016795A1 (published 2024).

In this assay the target is BRD4 bromodomain (Homo sapiens, UniProt O60885). Put plainly: biochemical. The note with it: IC50, BRD4, HTRF / time-resolved fluorescence assay. For orientation: In TR-FRET formats the signal depends on donor and acceptor labels being close together.

Structures are written as SMILES. pIC50: −log10 of the molar value.

The pIC50 is the negative decadic logarithm of the IC50, by convention in mol/L. The low end stands for a high IC50, the high end for a low IC50. Turning to `COC(=O)N1c2ccc3c(nc([C@H](O)c4cc(F)ccc4OC(F)F)n3[C@@H]3CCC[C@@H](C(=O)O)C3)c2CC[C@@H]1C` [Compound 3, (1R,3R)-3-((S)-2-((R)-(2-(difluoromethoxy)-5-fluorophenyl)(hydroxy)methyl)-6-(methoxycarbonyl)-7-methyl-6,7,8,9-tetrahydro-3H-imidazo[4,5-f]quinolin-3-yl)cyclohexane-1-carboxylic acid], the negative logarithm of the IC50 (pIC50) was less than 6.00.
